Results reported in patent publication US9562052B2, “Bicyclicpyridine derivatives” (Hoffmann-La Roche Inc., priority 2012, dated 2017).

Protein sequences, listed by entry. Tags and fused reporters are not part of them.
UniProt P15090, whole entry: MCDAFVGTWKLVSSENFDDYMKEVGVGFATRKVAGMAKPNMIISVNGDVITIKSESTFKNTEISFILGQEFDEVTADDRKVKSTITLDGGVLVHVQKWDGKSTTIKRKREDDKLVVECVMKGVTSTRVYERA
UniProt Q01469, whole entry: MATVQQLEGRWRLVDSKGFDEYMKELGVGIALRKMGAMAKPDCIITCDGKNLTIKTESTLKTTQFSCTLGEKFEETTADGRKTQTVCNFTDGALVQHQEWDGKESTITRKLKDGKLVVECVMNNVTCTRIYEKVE

Assays:
human FABP4 (huFABP4) = human FABP4 (huFABP4) (Homo sapiens, UniProt P15090)
human FABP5 (huFABP5) = human FABP5 (huFABP5) (Homo sapiens, UniProt Q01469)

**Q.** How did the IC50 (human FABP4 (huFABP4)) turn out when `CC(C)(C)c1nc2c(c(-c3ncc(C(F)(F)F)[nH]3)c1-c1nn[nH]n1)CCCCC2` was run?
**A.** The IC50 was 200 nM.

**Q.** And the IC50 (human FABP5 (huFABP5))?
**A.** The IC50 was 19.9 µM.
